Experimental data: patent US7268224B2, “Human glucocorticoid receptor 1A promoter and splice variants” (Board of Supervisors of Louisianna State University and …, priority 2000, dated 2007)

System: IRF-1 and IRF-2 protein levels in Jurkat cells
Test: IRF protein levels in interferon-treated Jurkat cells
Assay type: cell-based, human
Conditions: data not shown
Source text: The sequence of the 1A promoter and exon and identification of the transcription factors that bind to it will lead to new treatments. By identifying transcription factor binding sites in the 1A promoter and exon, we will determine whether activation of any of these factors will directly activate the hGR 1A promoter. For example, if the interferon regulatory factor element (IRF-E) that we have discovered is functional in activating the hGR 1A promoter, it may be possible to combine interferon therapy with corticosteroids to improve the lymphoblast kill rate by super-inducing GR expression. […] See H. Harada et al., “Structurally Similar but Functionally Distinct Factors, IRF-1 and IRF-2, Bind to the Same Regulatory Elements of IFN and IFN-Inducible Genes,” Cell, vol. 58, pp. 729-739 (1989). Thus, treatment of CEM-C7 cells (or of human patients) with an interferon may increase intracellular IRF-1, which could then stimulate the transcription of exon 1A G transcripts in the lymphoblast cells. This would make these cells more sensitive to the killing effects of glucocorticoids, thus resulting in an improved therapy and patient response.

B1: interferon-β: interferon used to treat Jurkat cells (protein, UniProt P01574 22-187, looked up)
Interferon beta: MSYNLLGFLQRSSNFQCQKLLWQLNGRLEYCLKDRMNFDIPEEIKQLQQFQKEDAALTIYEMLQNIFAIFRQDSSSTGWNETIVENLLANVYHQINHLKTVLEEKLEKEDFTRGKLMSSLHLKRYYGRILHYLKAKEYSHCAWTIVRVEILRNFYFINRLTGYLRN
  IRF-1 protein levels: dramatic increase
  IRF-2 protein levels: not IRF-2
